{"sequences": {"note": "The chains behind the UniProt entries cited, without tags or fusion partners. Residues count along the entry.", "UniProt P00791, 60-385": "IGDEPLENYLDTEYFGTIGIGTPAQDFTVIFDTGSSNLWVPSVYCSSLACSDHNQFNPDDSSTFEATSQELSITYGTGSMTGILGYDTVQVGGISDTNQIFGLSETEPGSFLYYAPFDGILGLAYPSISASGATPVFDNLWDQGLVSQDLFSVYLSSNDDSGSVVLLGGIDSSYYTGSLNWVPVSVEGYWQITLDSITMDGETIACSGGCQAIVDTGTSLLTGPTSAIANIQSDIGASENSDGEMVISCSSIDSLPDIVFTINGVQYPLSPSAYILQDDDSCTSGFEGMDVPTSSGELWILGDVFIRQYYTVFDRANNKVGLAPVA"}, "source": "patent US5872210A", "about": "(priority 1995, dated 1999)", "target": "T1, Porcine pepsin (Sus scrofa, UniProt P00791)", "T1 construct": "porcine pepsinogen is converted to enzymatically active pepsin by loss of the first 44 N-terminal residues", "test": "Inhibition of pepsin (substrate II)", "type": "biochemical", "details": "pH 3.0", "experimental": "HIV-1 protease was obtained and its active site concentration was determined at 25° C. Purified enzyme was stored as a 5-8 μM stock solution in 50 mM NaOAc (pH 5.0), 1 mM DTT, 1 mM EDTA, 0.05% reduced Triton X-100 at -80° C. Porcine pepsin was prepared as 1-2 mg/ml in 50 mM formic acid (pH 3.0). The peptide concentrations were adjusted for their protein content.\nHIV-1 protease activity was measured at 25° C. using substrate I (Lys-Ala-Arg-Val-Nle-Phe (NO2) -Glu-Ala-Nle-NH2 wherein Nle is norleucine and Phe (NO2) is 4-nitrophenylalamine). In a typical assay, 2.5 μl of enzyme was added to 97.5 μl of buffer and 2.5 mM DTT in the presence or absence of varying concentrations of inhibitor. The reaction was initiated by the addition of 10 μl of a 4 mM solution of substrate I in water and monitored by following the decrease in absorption at […] in a 100 μl spectrophotometric cell. Pepsin was assayed using substrate II (Phe-Gly-His-Phe(NO2)-Phe-Ala-PheOCH3). The reaction was monitored by following the decrease in absorbance at 269 nm in a final volume of 110 μl of 50 mM formate buffer, pH 3.0, containing 150 mM and 160 μM enzyme and substrate, respectively, at 25° C. Concentrations of substrate solutions were determined spectrophotometrically at […].\nSuch selective inhibition facilitates treatment of HIV infected mammalian cells."}
{"smiles": "CC(C)C[C@H](NC(=O)[C@H](CC(=O)O)NC(=O)[C@@H](N)CCC(=O)O)C(=O)O", "note": "[Peptide 4, Glu--Asp--Leu]", "values": [{"measurement": "Ki", "result": 7.5, "unit": "mM"}]}
